Experimental data as given in ChEMBL document CHEMBL3526057, “Evaluation of the effects of 20 nonsynonymous single nucleotide polymorphisms of CYP2C19 on S-mephenytoin 4'-hydroxylation and omeprazole 5'-hydroxylation” (Drug Metab Dispos, 2011).

Target: Cytochrome P450 2C19 (Homo sapiens, UniProt P33261, D360N)
Assay: Activity of human recombinant CYP2C19 D360N mutant expressed in Saccharomyces cerevisiae BJ5457 assessed as omeprazole 5'-hydroxylation per pmol protein at 5 uM after 60 mins
Format: ADME
Details: recombinant enzyme, 1 h

## COc1ccc2[nH]c([S+]([O-])Cc3ncc(C)c(OC)c3C)nc2c1 (stereo unspecified) [OMEPRAZOLE]
  Drug metabolism: 1.81 pmol/min
